Results taken from patent publication US9238131B2, “Ocular iontophoresis device” (priority 2005, dated 2016).

Settings: rabbit, 40 mg/ml in water with no buffer, 2 mA-4 min
Source text: The assignee made some comparative tests on rabbits done with a first iontophoresis device having cylindrical outer and inner walls (as known in the prior art) and a second iontophoresis device as shown in FIG. 7 (i.e. the inner wall 26 and outer wall 24 being tapered with the same inclination angle).
The two devices were designed for having the same: • application surface 2; • distance between the active electrode 10 and the application surface 2.
The area of the active electrode 30 of the second device was about three times more important than those of the first device.
For each comparative test, iontophoresis conditions were the same (2 mA-4 min).
After iontophoresis, rabbit ocular tissues were sampled. Tissues sampled included choroids and retina.
Concentrations of active substances 30 in these ocular tissues were then measured.

## C[C@@H]1C[C@H]2[C@@H]3CCC4=CC(=O)C=C[C@]4(C)[C@@]3(F)[C@@H](O)C[C@]2(C)[C@@]1(O)C(=O)COP(=O)([O-])[O-].[Na+].[Na+] [Dexamethasone Disodium Phosphate]
  Increase of tissue concentration, second device versus first device, retina: 3.4
